Earlier results as cited in PMC7188706 (Cancer Chemotherapy and Pharmacology, 2020).

Tested on: patients with known EGFR mutations
Conditions: cited from earlier work

Structure (SMILES): COc1cc2ncnc(Nc3ccc(F)c(Cl)c3)c2cc1OCCCN1CCOCC1 [gefitinib]
- tolerability (erlotinib 450 mg every 3 days or gefitinib 1000 mg every 4 days): well tolerated
- median PFS (gefitinib 1000 mg every 4 days): 6 months
- response rate (gefitinib 1000 mg every 4 days): 21%
